Earlier results as cited in patent US20260015328A1, “ATM KINASE INHIBITORS” (Eberhard Karls Universität Tübingen, priority 2023, published 2026).

Protein sequences, listed by entry. Tags and fused reporters are not part of them.
UniProt Q5S007, whole entry, species assumed: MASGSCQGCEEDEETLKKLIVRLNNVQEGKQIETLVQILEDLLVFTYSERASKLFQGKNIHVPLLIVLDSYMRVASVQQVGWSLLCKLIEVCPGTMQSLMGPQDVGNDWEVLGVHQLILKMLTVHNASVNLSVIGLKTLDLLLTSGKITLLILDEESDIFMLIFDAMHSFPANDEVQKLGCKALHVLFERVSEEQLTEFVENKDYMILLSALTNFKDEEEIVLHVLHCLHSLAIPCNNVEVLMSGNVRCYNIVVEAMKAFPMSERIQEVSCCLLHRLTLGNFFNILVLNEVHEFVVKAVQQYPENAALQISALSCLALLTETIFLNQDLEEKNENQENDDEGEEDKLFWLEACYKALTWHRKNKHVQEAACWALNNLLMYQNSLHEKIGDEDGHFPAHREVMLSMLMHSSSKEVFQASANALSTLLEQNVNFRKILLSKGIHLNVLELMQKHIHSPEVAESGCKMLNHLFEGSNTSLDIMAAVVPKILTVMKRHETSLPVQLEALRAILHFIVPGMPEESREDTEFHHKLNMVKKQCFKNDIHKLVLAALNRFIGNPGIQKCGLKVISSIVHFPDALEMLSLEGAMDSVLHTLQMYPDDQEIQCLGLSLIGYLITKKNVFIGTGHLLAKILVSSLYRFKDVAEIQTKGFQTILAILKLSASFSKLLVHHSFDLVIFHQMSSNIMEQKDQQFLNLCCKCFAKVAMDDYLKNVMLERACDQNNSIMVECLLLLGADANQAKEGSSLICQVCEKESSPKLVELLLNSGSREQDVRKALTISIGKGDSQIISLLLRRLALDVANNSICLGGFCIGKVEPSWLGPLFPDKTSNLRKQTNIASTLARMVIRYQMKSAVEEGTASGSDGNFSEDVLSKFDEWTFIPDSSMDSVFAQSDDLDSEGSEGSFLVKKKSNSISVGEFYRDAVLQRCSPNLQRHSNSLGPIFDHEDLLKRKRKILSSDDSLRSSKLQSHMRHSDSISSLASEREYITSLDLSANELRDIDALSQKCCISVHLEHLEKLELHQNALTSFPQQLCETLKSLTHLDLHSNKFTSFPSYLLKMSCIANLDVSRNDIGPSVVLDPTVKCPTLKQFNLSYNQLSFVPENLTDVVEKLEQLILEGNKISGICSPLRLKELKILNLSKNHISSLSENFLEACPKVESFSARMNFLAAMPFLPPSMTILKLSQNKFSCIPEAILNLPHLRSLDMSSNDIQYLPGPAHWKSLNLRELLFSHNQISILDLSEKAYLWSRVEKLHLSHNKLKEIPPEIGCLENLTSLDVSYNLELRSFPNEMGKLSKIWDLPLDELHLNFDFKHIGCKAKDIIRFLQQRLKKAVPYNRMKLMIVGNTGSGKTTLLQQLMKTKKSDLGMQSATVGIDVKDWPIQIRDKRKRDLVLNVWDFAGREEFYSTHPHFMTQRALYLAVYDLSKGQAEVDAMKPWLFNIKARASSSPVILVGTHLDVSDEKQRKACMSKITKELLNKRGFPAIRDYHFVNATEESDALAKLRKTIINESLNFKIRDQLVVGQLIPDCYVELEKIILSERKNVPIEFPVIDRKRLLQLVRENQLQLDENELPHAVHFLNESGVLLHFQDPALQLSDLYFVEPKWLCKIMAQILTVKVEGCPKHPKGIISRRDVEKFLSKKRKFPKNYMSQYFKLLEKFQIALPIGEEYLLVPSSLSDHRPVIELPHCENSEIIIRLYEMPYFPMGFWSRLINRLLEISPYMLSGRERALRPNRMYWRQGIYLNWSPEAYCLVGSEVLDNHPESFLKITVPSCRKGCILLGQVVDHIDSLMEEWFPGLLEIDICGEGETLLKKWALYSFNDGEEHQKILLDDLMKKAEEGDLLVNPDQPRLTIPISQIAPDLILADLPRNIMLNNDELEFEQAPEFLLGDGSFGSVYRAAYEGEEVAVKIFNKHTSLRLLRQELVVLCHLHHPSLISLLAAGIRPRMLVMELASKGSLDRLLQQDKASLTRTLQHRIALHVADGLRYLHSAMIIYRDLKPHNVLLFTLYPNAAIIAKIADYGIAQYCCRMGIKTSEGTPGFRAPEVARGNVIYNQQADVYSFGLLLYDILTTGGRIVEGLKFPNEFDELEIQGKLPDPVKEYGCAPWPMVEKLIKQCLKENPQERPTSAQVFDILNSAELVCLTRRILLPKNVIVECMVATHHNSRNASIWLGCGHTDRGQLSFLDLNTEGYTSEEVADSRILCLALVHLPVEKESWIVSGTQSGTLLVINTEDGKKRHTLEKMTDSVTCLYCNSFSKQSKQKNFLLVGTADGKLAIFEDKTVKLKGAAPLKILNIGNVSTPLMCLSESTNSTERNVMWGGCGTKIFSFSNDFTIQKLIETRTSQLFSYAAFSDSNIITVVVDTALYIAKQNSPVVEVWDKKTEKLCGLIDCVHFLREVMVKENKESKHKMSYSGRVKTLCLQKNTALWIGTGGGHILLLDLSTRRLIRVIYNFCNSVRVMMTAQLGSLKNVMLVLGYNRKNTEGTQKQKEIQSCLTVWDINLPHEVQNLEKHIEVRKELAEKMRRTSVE

Columns and labels:
[1] = target: LRRK2 (Homo sapiens (Human), UniProt Q5S007); conditions: cited from earlier work
[2] = target: mTOR (Homo sapiens (Human), UniProt P42345); conditions: cited from earlier work

CN(C)CCCOc1ccc(-c2ccc3ncc4c(c3c2)n(C2CCOCC2)c(=O)n4C)cn1 [AZD0156, 8-{6-[3-(Dimethylamino)propoxy]pyridin-3-yl}-3-methyl-1-(tetrahydro-2H-pyran-4-yl)-1,3-dihydro-2H-imidazo[4,5-c]quinolin-2-one]
LRRK2 inhibition at 1 μM [1]: ≥ 87% | mTOR inhibition at 1 μM [2]: ≥ 87%
